{"source": "paper PMC9398166", "about": "(Molecular Cancer Therapeutics, 2021)", "origin": "cited, not measured here", "tested_on": "ALK+ NSCLC", "conditions": "patients with ALK+ NSCLC, first-line setting; cited from earlier work", "data": [{"smiles": "C[C@@H](Oc1cc(-c2cnn(C3CCNCC3)c2)cnc1N)c1c(Cl)ccc(F)c1Cl", "note": "[Crizotinib, crizotinib]", "values": [{"measurement": "objective response rate", "result": 74, "unit": "%"}]}]}
